The record followed here is patent US9938562B2, “Naphthalene derived chromogenic enzyme substrates” (Glycosynth Limited, priority 2013, dated 2018).

Only a part of the results on these compounds is given; other tests are left out.

Data set [1] deals with Bacillus subtilis NCTC 9372. Nature of the data set: Agar plate multi-point inoculation, colour. Type of data set: cell-based. The conditions noted are these: Columbia agar, FAC 500 mg/L, substrate 300 mg/L, 37° C. 18 h in air.

Take “DHN-6-sulfonic acid-phosphate trisodium salt”: the Colour entry in data set [1] is reported as “−”. Besides, the “solubility in water / aqueous media” value in the data set “Solubility in water” is “very soluble”.
